From US11274103B2, “Compounds for the modulation of MYC activity” (Syros Pharmaceuticals, Inc., priority 2016, dated 2022)

The chains behind the UniProt entries cited, without tags or fusion partners.
UniProt P01106, whole entry: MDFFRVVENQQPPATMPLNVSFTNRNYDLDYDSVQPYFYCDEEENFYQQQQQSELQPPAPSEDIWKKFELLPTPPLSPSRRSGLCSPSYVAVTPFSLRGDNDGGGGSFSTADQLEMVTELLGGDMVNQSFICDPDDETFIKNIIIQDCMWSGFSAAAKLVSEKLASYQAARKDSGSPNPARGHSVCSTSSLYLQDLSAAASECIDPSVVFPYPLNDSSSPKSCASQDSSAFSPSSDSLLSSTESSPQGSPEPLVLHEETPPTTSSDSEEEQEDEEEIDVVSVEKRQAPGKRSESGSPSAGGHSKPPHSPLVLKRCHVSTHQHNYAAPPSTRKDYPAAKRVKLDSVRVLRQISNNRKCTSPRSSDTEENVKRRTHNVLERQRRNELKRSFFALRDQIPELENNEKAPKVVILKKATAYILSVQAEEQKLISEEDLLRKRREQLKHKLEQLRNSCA

Molecular target: c-Myc/Max/Ebox DNA (Homo sapiens, UniProt P01106)
Assay: c-Myc/Max/Ebox DNA AlphaScreen Assay
Details: read-out: Myc/Max/DNA Activity, calculated IC50, free c-Myc 20 nM, his6-Max 5 nM, biotinylated Ebox oligo 10 nM, 2 hour incubation
Experimental: Compounds of the invention were assayed for c-Myc/Max/EBox activity as described in the following protocol. Human his6-c-Myc and his6-Max were used with biotinylated DNA containing a single Ebox sequence (biotin[…] (SEQ ID NO: 1)) purchased from MWG Operon. Free c-Myc was generated from his6-c-Myc through thrombin cleavage of the his6 tag (SEQ ID NO: 2). For 384-well plate assays, 10 μL of a 2× solution of free c-Myc (20 nM final), Ni^2+ coated Acceptor Beads (25 μg/ml final), and biotinylated Ebox oligo (10 nM final) were added to 384-well plates with a Biotek EL406 liquid handler. 50 nL of compounds from stock plates were added by pin transfer using a Janus Workstation (PerkinElmer), allowing the compounds to interact with c-Myc prior to c-Myc binding with Max. In the current assay, DMSO was not allowed to exceed 2% v/v of the assay. 10 μl of 2× master mix containing streptavidin-coated donor beads (25 μg/ml final) and his6-Max (5 nM) were added. AlphaScreen measurements were performed on an Envision plate reader (PerkinElmer) utilizing the manufacturer's protocol.
Both master mixes were made in room temperature assay buffer (50 mM HEPES, 150 mM NaCl, 0.2% w/v BSA, 0.02% w/v Tween20, 40 μg/ml glycogen, 500 μM DTT, pH 8.0, wherein both DTT and glycogen were added fresh). Alpha beads were added to respective master solutions. All subsequent steps were performed in low light conditions. Solution 1: 2× solution of components with final concentrations of c-Myc Ni-coated Acceptor Beads (25 μg/ml), and biotinylated Ebox oligo (10 nM). Solution 2: 2× solution of streptavidin-coated donor beads (25 μg/ml final) and his6-Max 10 μL. Solution 1 was added to 384-well plate (AlphaPlate-384, PerkinElmer) with Biotek EL406 liquid handler and the plates were centrifuged very briefly. 50 nL of compounds from stock plates were added by pin transfer using a Janus Workstation. Solution 2 (10 μL) was added with the liquid handler. Plates were sealed with foil to block light exposure and prevent evaporation. Plates were very briefly centrifuged followed by 2 hour incubation. AlphaScreen measurements were performed on an Envision 2104 utilizing the manufacturer's protocol. Excitation was at 680 nm for donor bead release of singlet oxygen and emission was read with a bandpass filter from 520-620 nm. Glycogen: Roche Diagnostics #10901393001. Plate 1536: Perkin Elmer, 6004350. Plate 384: Perkin Elmer, 6005350. Nickel-His Alpha Beads: 6760619R. The data from this assay are summarized in Table 2 below (Myc/Max/DNA Activity), where “A” represents a calculated IC50 of less than 500 nM; “B” represents a calculated IC50 of between 500 nM and 5 μM; “C” represents a calculated IC50 of between 5 μM and 10 μM; “D” represents a value of greater than 10 μM, and “NT” represents a compound for which an assay result was not obtained.

Row | Compound | IC50 | IC50 (tested form: hydrochloride) | other results
1 | CC(C)NCCC(=O)Nc1sc2c(c1-c1nc(C(=O)N3CCN(C)CC3)cs1)CCNC2 | > 10 µM |  | 
2 | CC(C)NCCC(=O)Nc1sc2c(c1-c1nc(C(=O)N3CCCCC3)cs1)CCNC2 | > 10 µM |  | 
3 | COCCNC(=O)c1csc(-c2c(NC(=O)CCNC(C)C)sc3c2CCNC3)n1 |  | > 10 µM | 
4 | Cc1ccc(-c2csc(-c3c(NC(=O)CCNC(C)C)sc4c3CCNC4)n2)cn1 |  | < 0.5 µM | 
5 | CC(C)NCCC(=O)Nc1sc2c(c1-c1nc(C(=O)N(C)C)cs1)CCNC2 | > 10 µM |  | 
6 | CC(C)NCCC(=O)Nc1sc2c(c1-c1nc(C(=O)NC(C)C)cs1)CCNC2 |  | 5 to 10 µM | 
7 | Cc1ncccc1-c1csc(-c2c(NC(=O)CCNC(C)C)sc3c2CCNC3)n1 | 0.5 to 5 µM |  | 
8 | CC(C)NCCC(=O)Nc1sc2c(c1-c1nc(C(=O)N3CCOCC3)cs1)CCNC2 |  | > 10 µM | 
9 | CC(C)NCCC(=O)Nc1sc2c(c1-c1nc(Br)cs1)CCNC2 |  |  | IC50 (tested form: HCl): 0.5 to 5 µM
10 | CC(=O)Nc1csc(-c2c(NC(=O)CCNC(C)C)sc3c2CCNC3)n1 | 0.5 to 5 µM |  | 

Where two headings read alike, the source gives them in different places.
